We go through one compound from patent US9572858B2, “Composition for treating and preventing benign prostatic hyperplasia” (GemVax & KAEL Co., Ltd., priority 2013, dated 2017).

The test system of test [1] is BPH induced animal model (sulpiride). The experiment in a line: Organ weights in sulpiride BPH induced animal model. The format is in vivo, Sprague-Dawley male rats.
In test [2] the test system is PCNA (proliferating cell nuclear antigen). The experiment in a line: PCNA expression in prostate tissue of BPH induced mouse model (2D-gel electrophoresis). Particulars: PEP1 250 μg per 25 g mouse s.c. every day, 2 weeks. The format is in vivo, C57BL/6 mice. The method, then: The experiment used 6-8 weeks old male C57BL/6 (n=10/group) mice and the mice were raised in the SPF (specific pathogen free) area of experimental animal laboratory in Medical College of Seoul University. Testosterone enanthate (TE, purchased from EVER Pharma Hena GmbH, Germany) for injection 50 mg and estradiol valerate (purchased from EVER Pharma Hena GmbH, Germany) 0.5 mg are respectively mixed into 70 μl volume of micro-osmotic pump (Alzet pump, purchased from DURECT Corporation, USA), and the pump was transplanted in the back of mouse under anesthetic. The pump was designed to release the hormone in the concentration of 0.11 μl per an hour in 28 days (2 weeks) into the mouse by using osmosis phenomenon.
As test materials, testosterone and finasteride were used. […]
Inducing BPH increases PCNA (proliferating cell nuclear antigen, compulsory protein for replication) and Ki67 (MK167, compulsory protein for proliferation of cell) in prostate tissues. […] PCNA was measured by using 2D-gel electrophoresis with protein of the extracted from prostate tissue cells, and Ki67 was measured by immunostain method to detect expression level in tissue. […]

The subject of another test is 5α-reductase. Nature of the test: Expression of 5α-reductase in ventral prostate by RT-PCR, BPH induced animal model. The format is in vivo, Sprague-Dawley male rats. Particulars: 60 days, rat. The source says:
As androgen, the most commonly used hormone in the body is testosterone. But the most powerful hormone of androgens related to development of prostate is 5α-dihydrotestosterone (DHT) which is made by combining testosterone and 5α-reductase. […] It is reported that DHT made by hyperprolactinemia make more gaining weight in lateral lobe than dorsal lobe or ventral lobe of prostate. Based on this fact, the experiment using PEP1 according to example 1 only or co-administration with other test material to BPH induced animal model was done as follows. […] Also before administrating the test materials, the body weights of every animal were measured and recorded.
Sulpiride as test material was purchased from Sigma Chemical Co. (St. Louis, Mo., USA) and used for the experiment. […] The dosage of the administration was calculated based on the concentration of 0.5 ml/kg with reflecting the body weight measured every day. […]
After administrating sulpiride with test materials for 60 days and collecting ventral prostate, the effect to the expression of 5α-reductase was measured by using RT-PCR. […] After then RNA was quantified by using spectrophotometer. […] For the control of quantification in electrophoresis, GAPDH whose expression level is not changed by other drugs was used. […]

Test [3] concerns RWPE-1 (prostate epithelium cell line). The experiment in a line: DHT-induced proliferation of prostate epithelium cell line (CCK-8). Particulars: PEP1 100 and 200 μM vs no PEP1. It counts as cell-based. The method, then: (§1) Testosterone changes into DHT by 5α-reductase when it is injected to the body and it induces proliferation of prostate cells to cause BPH. Based on this, the experiment has been done to observe the effect on proliferation of prostate cell line by using administration of PEP1 according to example 1. As the cell lines, the WPMY-1 (prostate stromal cell line) and the RWPE-1 (prostate epithelium cell line) from animal models are used. For the experiment, WPMY-1 (2.5×10^3 cells) and RWPE-1 (1×10^4 cells) were seeded to 96 well which has separated experimental groups like Table 4 to observe the proliferation change. The proliferation change was observed by putting CCK-8 solution into each well of the media per 10 μL after suctioning the culture media, and measuring optical density for 1-4 hour at 450 nm wavelength.

Test [4] concerns WPMY-1 (prostate stromal cell line). Nature of the test: DHT-induced proliferation of prostate stromal cell line (CCK-8). It counts as cell-based. Particulars: PEP1 100 and 200 μM vs no PEP1. The procedure: as §1
[5] abbreviates: Sulpiride 40 mg/kg 60 days + PEP1 0.01 mg/kg s.c., rat.
Where [6] appears, read: Sulpiride 40 mg/kg 60 days + PEP1 0.1 mg/kg s.c., rat.
Where [7] appears, read: Sulpiride 40 mg/kg 60 days + PEP1 1 mg/kg s.c., rat.
[8] abbreviates: Sulpiride 40 mg/kg 60 days + PEP1 10 mg/kg s.c., rat.

Turning to `CC[C@H](C)[C@H](NC(=O)[C@H](Cc1ccccc1)NC(=O)[C@H](CCCNC(=N)N)NC(=O)[C@H](CC(C)C)NC(=O)[C@H](CCCNC(=N)N)NC(=O)[C@H](CO)NC(=O)[C@@H](NC(=O)[C@H](CC(C)C)NC(=O)[C@H](CC(C)C)NC(=O)[C@H](C)NC(=O)[C@@H]1CCCN1C(=O)[C@H](CCCNC(=N)N)NC(=O)[C@H](C)NC(=O)[C@@H](N)CCC(=O)O)[C@@H](C)O)C(=O)N1CCC[C@H]1C(=O)N[C@@H](CCCCN)C(=O)O` [PEP1, EARPALLTSRLRFIPK], the Prostate index in test [1] (setting [5]) is listed as 0.208; in test [1] (setting [6]), 0.265; in test [1] (setting [7]) it was 0.198; in test [1] (setting [8]), 0.132. The Weight of prostate is 1.13 ± 0.07 g in test [1] (setting [5]), 1.32 ± 0.05 g in test [1] (setting [6]), 0.94 ± 0.08 g in test [1] (setting [7]) and 0.57 ± 0.05 g in test [1] (setting [8]). For the same compound, the “Weight of seminal vesicle” value is reported as 0.97 ± 0.07 g in test [1] (setting [5]), 1.03 ± 0.12 g in test [1] (setting [6]), 0.81 ± 0.04 g in test [1] (setting [7]) and 0.41 ± 0.03 g in test [1] (setting [8]). Further, the “Weight of prostate (significance, P under 0.05)” value in test [1] (co-administration of sulpiride and PEP1, rat) is reported as “significantly decreased”. Also, the “Weight of seminal vesicle (significance, P under 0.05)” value in test [1] (high-dose PEP1 10 mg/kg + sulpiride, rat) is recorded as “significantly decreased”. Also, in test [2], the “Expression of PCNA in prostate tissue” value is given as “decreased”. In addition, in the test on 5α-reductase (high-dose PEP1 group (GV 10, 10 mg), sulpiride), the “Inhibitory effect on 5α-reductase expression compared with finasteride” value is recorded as “higher than the group of finasteride administration”. The “Level of 5α-reductase expression in ventral prostate (RT-PCR)” value in the test on 5α-reductase (sulpiride + PEP1 0.01-10 mg/kg s.c., dose-dependent) is given as “inhibited”. In addition, the “Proliferation change (CCK-8, optical density 450 nm)” value in test [3] (RWPE-1, DHT 25 μM treated) was “significant inhibition effect to proliferation”; in test [3] (RWPE-1, DHT non-treated), “not significant differences”; in test [4] (WPMY-1, DHT 25 μM treated) it was “significant inhibition effect to proliferation”; in test [4] (WPMY-1, DHT non-treated) it was “not significant differences”.
